Test results: patent US20230271956A1, “AMIDE DERIVATIVES” (Merck Patent GmbH, priority 2020, published 2023)

Sequences of proteins named here, by UniProt entry; tags and fusion partners are left off.
UniProt Q9NR19, whole entry: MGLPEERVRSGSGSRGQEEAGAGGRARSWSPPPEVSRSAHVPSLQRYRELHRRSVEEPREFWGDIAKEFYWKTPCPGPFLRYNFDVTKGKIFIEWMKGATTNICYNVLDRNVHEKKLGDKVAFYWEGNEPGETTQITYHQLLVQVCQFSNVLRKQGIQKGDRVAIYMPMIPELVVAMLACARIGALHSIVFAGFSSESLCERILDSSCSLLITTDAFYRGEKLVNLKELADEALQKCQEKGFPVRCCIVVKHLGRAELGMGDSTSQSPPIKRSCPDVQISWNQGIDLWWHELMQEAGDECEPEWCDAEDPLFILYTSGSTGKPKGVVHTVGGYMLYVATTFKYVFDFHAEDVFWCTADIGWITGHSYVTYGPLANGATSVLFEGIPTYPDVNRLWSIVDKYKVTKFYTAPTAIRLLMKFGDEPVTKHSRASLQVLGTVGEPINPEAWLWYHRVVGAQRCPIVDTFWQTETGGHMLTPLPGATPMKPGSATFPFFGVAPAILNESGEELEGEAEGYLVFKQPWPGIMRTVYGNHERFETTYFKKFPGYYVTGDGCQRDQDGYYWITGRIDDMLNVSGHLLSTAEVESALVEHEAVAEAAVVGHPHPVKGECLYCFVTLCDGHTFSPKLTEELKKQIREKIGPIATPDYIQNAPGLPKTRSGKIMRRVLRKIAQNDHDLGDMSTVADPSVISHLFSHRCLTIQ

Molecular target: human rec ACSS2 (Homo sapiens, UniProt Q9NR19)
Experiment: Biochemical activity ACSS2 assay (AMP-Glo)
Settings: read-out: IC50 biochemical; human recombinant ACSS2, AMP-Glo, 180 min at 37° C.
Method: The biochemical activity assay for ACSS2 is based on the detection of released AMP by AMP-Glo ™ Assay kit (Promega, Madison). The assay is run in three steps: the enzymatic reaction in which human rec ACSS2 activates acetate with ATP and Coenzyme A as cosubstrates to acetyI-coA thereby releasing AMP and the detection reaction of AMP by AMP Glo assay in which after the destruction of the residual ATP with AMP Glo reagent 1 produced AMP is converted to ATP that is measured in a luciferase assay system (detection reagent). The ACSS2 activity correlates with the detected luminescence signal.
The assay was performed in Perkin Elmer 384well white Proxiplates in a total volume of 8 µl.
1 nM (fc) C-term myc tagged ACSS2 (human, recombinant, Origene, Rockville, US) and a mixture of 100 µM (fc) ATP, 100 µM (fc) Coenzyme A and 500 µM (fc) sodium acetate were incubated in a total volume of 5 µl (50 mM Hepes, 1 mM Mg-chloride, 150 mM NaCl, 1 mM DTT, 0.01 % (w/v) BSA, 0.3 % DMSO, pH 7.5) in the absence or presence of the test compound (10 dilution concentrations, start conc 30 µM) for 180 min at 37° C. […] The luminescence signal was measured with an Envision multimode reader (Perkin Elmer LAS Germany GmbH) at 700 nm in luminescence mode. […] The inhibitory values (IC50) were determined using the program Assay Analyzer® from GeneData.

`CCn1cnc(NC(=O)c2cc3c(nc2OC)nc(C(O)(c2ccccc2)c2ccccc2)n3CCN(C)C)n1` showed an IC50 of 1 to 10 nM.

This is a selection: effects in other tests are not listed, and their absence says nothing.
